From patent US9446044B2, “DYRK1 inhibitors and uses thereof” (DIAXONHIT, priority 2011, dated 2016)

Protein sequences, listed by entry. Tags and fused reporters are not part of them.
UniProt Q9Y463, whole entry: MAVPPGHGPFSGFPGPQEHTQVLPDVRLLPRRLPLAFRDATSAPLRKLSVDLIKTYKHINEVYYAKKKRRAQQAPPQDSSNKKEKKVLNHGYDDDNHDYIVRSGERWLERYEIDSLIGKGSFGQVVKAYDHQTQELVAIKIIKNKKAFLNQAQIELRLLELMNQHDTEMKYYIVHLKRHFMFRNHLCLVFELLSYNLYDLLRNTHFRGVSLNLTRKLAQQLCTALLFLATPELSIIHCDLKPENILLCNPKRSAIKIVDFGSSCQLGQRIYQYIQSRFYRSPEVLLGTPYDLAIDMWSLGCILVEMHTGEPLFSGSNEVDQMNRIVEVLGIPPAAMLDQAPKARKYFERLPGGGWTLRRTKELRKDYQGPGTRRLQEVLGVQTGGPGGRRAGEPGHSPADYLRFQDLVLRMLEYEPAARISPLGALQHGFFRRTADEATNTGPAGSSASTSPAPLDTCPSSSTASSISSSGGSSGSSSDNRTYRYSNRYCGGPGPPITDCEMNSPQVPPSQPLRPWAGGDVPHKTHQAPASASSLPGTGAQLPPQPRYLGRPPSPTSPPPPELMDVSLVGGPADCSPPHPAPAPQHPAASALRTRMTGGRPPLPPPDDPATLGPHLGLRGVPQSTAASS

Assays:
[1] = biological target: DYRK1B (Homo sapiens (Human), UniProt Q9Y463); assay: DYRK1B kinase assay (HotSpot, Reaction Biology); type: biochemical
[2] = biological target: DYRK1A (Homo sapiens (Human), UniProt Q13627); assay: DYRK1A kinase assay (HotSpot, Reaction Biology); type: biochemical; conditions: purified recombinant kinase, 10 μM ATP, room temperature 120 min

Compound: COC(=N)c1nc2ccc3ncnc(Nc4ccc5nc[nH]c5c4)c3c2s1 [Compound 59, Methyl 9-(1H-benzo[d]imidazol-6-ylamino)thiazolo[5,4-f]quinazoline-2-carbimidate]
- IC50 [1]: 4.65 nM
- IC50 [2]: 4.44 nM
